This data set has as its system NFκB reporter cells or IMG microglial cells. The data set can be described thus: Cytotoxicity assay (CellTiter-Glo Luminescent Cell Viability Assay). To be noted: up to 12.5 μg/ml, 24 hours, NFκB reporter cells and IMG microglial cells, FIG. 11. A general note: Cellular ATP, detected with luciferase, serves as a proxy for viable cell number.
Consider “Ac- RRR[Dap]FT[Nal]LD (cyclic) [Peptide A3-5]”, for which the cytotoxic effects entry is “no cytotoxic effects”.

Consider “Ac- RR[Dap]FT[Nal]L[dS]D (cyclic) [Peptide A3-9]”, for which the cytotoxic effects entry was “no cytotoxic effects”.

“Ac- RR[Dap]FT[Nal]LD (cyclic) [Peptide A3-6]”: the cytotoxic effects result is recorded as “no cytotoxic effects”.

(Values after US20250353898A1, “SERPIN PEPTIDE DERIVATIVES AND METHODS OF USING THE SAME” (priority 2022, published 2025).)
